From patent publication US7211395B2, “Serum albumin binding moieties” (Dyax Corp., priority 2001, dated 2007)
Like-named read-outs stand apart in the source and are kept apart here.

By UniProt entry, the sequences of proteins in these tests, tags left out. Residues count along the entry.
UniProt P02768, 25-609: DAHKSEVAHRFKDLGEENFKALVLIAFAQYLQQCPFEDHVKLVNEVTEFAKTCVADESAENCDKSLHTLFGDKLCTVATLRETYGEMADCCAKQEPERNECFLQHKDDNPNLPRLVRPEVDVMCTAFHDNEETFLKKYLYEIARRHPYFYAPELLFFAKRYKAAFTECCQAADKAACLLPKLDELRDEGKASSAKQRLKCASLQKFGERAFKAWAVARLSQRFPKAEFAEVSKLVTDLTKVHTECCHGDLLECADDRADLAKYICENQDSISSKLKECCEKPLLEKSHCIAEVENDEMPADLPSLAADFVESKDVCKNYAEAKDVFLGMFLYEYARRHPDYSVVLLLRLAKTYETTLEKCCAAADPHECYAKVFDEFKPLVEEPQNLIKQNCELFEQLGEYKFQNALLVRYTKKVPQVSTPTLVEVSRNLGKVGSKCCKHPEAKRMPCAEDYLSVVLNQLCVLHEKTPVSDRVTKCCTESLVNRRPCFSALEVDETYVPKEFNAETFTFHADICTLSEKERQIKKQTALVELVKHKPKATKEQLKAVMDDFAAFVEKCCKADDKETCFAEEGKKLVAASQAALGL
UniProt P02770, 25-608: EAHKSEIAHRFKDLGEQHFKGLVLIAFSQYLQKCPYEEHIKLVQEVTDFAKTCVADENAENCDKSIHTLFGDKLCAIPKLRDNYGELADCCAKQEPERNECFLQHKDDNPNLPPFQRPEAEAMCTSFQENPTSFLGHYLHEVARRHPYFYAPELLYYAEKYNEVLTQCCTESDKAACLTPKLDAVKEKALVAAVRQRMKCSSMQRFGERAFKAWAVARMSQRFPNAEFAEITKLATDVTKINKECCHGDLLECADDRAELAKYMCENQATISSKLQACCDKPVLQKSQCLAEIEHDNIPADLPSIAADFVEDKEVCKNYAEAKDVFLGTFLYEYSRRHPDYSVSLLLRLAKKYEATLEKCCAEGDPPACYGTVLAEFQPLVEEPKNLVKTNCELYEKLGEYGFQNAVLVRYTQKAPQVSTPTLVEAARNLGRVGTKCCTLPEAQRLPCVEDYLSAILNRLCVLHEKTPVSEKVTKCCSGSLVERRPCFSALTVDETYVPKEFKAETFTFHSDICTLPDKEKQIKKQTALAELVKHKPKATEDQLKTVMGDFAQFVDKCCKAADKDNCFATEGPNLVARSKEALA
UniProt Q28522, 17-600: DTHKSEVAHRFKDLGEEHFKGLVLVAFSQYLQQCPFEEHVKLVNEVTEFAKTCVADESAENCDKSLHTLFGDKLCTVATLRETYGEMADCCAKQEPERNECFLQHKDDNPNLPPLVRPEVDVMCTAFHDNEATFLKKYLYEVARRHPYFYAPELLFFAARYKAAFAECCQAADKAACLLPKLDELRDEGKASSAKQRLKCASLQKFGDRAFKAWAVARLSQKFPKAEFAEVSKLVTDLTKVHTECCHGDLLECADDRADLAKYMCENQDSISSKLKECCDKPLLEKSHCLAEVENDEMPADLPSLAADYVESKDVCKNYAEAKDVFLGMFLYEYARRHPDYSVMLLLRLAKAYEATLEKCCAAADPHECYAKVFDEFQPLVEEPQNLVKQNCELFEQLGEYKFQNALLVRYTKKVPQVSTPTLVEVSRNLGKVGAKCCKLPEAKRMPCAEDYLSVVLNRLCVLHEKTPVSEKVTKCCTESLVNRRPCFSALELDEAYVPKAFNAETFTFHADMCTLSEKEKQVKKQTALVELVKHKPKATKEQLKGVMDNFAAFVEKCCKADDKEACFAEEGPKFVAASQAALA
UniProt A0A452F7K4, 1-607: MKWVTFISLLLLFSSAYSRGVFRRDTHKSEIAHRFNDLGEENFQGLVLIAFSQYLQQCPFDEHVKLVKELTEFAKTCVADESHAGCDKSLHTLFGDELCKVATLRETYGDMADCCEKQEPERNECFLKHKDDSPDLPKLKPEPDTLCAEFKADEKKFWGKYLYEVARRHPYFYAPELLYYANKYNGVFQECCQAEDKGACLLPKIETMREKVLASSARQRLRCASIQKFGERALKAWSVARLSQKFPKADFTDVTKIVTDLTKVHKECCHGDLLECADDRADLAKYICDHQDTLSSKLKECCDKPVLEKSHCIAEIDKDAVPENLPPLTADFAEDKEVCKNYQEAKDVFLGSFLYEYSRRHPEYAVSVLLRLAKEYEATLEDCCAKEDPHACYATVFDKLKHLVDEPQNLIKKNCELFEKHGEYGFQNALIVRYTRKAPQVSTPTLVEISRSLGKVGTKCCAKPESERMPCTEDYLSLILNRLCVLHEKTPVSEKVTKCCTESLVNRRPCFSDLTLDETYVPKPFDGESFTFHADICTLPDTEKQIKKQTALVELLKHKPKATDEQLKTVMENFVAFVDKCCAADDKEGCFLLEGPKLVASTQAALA
UniProt P02769, 25-607: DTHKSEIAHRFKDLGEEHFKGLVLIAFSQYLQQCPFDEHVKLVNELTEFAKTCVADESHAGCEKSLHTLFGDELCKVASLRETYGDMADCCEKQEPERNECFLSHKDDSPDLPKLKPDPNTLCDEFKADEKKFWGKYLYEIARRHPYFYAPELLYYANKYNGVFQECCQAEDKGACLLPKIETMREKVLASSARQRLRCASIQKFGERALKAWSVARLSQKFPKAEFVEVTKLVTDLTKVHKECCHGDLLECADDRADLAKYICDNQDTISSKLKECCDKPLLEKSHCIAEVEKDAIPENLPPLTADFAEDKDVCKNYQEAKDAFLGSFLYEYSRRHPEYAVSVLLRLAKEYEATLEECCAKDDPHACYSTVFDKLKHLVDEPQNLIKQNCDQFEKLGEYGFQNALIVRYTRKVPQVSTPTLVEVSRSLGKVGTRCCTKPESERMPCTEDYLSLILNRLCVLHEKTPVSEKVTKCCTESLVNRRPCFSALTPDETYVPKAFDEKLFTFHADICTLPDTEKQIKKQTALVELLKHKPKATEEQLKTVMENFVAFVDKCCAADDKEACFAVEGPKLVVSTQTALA
UniProt P08835, 25-607: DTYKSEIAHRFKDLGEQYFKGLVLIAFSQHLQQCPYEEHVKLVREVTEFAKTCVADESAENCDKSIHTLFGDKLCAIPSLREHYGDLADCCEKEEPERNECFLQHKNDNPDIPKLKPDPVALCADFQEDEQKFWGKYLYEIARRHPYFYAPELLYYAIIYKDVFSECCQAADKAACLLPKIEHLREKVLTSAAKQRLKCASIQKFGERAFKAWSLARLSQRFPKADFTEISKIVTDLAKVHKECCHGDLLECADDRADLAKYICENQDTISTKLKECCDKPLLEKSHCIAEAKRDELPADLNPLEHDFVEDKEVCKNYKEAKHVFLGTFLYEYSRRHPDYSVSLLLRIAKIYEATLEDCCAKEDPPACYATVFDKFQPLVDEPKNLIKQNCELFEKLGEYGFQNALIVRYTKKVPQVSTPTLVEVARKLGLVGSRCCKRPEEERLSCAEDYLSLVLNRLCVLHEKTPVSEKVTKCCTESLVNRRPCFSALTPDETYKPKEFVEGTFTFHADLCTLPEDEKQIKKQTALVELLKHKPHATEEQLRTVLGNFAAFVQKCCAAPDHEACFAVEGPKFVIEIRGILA
UniProt P49065, 25-608: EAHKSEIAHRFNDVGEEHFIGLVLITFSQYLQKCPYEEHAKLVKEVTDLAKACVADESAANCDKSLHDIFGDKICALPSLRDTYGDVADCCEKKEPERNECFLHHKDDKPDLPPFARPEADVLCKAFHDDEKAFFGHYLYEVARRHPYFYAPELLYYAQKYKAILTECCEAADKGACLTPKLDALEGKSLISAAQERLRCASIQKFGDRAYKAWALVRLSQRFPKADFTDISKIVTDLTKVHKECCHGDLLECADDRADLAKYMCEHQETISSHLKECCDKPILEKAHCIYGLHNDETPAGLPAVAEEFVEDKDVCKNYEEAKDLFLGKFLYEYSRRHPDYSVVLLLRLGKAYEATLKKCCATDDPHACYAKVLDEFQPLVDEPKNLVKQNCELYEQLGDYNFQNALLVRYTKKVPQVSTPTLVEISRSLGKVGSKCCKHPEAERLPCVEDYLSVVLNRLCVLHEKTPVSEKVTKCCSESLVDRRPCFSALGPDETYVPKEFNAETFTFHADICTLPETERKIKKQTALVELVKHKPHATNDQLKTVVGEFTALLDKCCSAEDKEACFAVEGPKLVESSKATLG

What was measured:
[1] = target: T1, human serum albumin (HSA) (Homo sapiens, UniProt P02768); assay: Fluorescence anisotropy, direct binding of fluorescein-labeled peptide to HSA
T1 construct: purchased ICN
Description: (§1) Affinity determinations were made by first labeling polypeptides on the C-terminal end with NHS-fluorescein. Fluorescence anisotropy measurements were performed in 384-well microplates in a volume of 10 μl in binding buffer using a Tecan Polarion fluorescence polarization plate reader. The concentration of fluorescein labeled peptide was held constant (20 nM), and the concentration of HSA was varied. For pH 6.2, 7.1, and 7.4 binding conditions, a 3 mM phosphate, 0.01% TWEEN-20® buffer was used. For pH 9.1 binding conditions, a 3 mM sodium bicarbonate buffer, 0.01% TWEEN-20® nonionic detergent buffer was used. Once NaCi was added to any of these buffers, their pH was adjusted again to achieve the original pH. The binding mixtures were equilibrated for 10 minutes in the microplate at […] prior to performing the measurement. The observed change in anisotropy was fit to the equation below via nonlinear regression to obtain the apparent KD. This equation assumes that the peptide and HSA form a reversible complex with 1:1 stoichiometry.

[2] = target: T2, Rat albumin (Rattus norvegicus, UniProt P02770); assay: Fluorescence anisotropy, panel of mammalian albumins: Rat; format: binding
T2 construct: All other mammalian albumins were purchased as Fraction V purified material from Sigma Chemical Company; purchased Sigma Chemical Company
Description: as §1
(§2) [formula] where robs is the observed anisotropy, rfree is the anisotropy of the free peptide, rbound is the anisotropy of the bound peptide, KD is the apparent dissociation constant, HSA is the total HSA concentration, and P is the total fluorescein-labeled peptide concentration.

[3] = target: T3, Rhesus albumin (Macaca mulatta, UniProt Q28522); assay: Fluorescence anisotropy, panel of mammalian albumins: Rhesus; format: binding
T3 construct: All other mammalian albumins were purchased as Fraction V purified material from Sigma Chemical Company; purchased Sigma Chemical Company
Description: as §1, §2

[4] = target: goat serum albumin (GSA) (Capra hircus, UniProt A0A452F7K4); assay: Fluorescence anisotropy, panel of mammalian albumins: Goat; format: binding
Description: as §1, §2

[5] = target: T4, bovine serum albumin (BSA) (Bos taurus, UniProt P02769); assay: Fluorescence anisotropy, panel of mammalian albumins: Bovine; format: binding
T4 construct: All other mammalian albumins were purchased as Fraction V purified material from Sigma Chemical Company; purchased Sigma Chemical Company
Description: as §1, §2

[6] = target: T5, chicken ovalbumin (Gallus gallus, UniProt P01012); assay: Fluorescence anisotropy, negative control chicken ovalbumin; format: binding; conditions: Chicken (egg) ovalbumin
T5 sequence (P01012 1-386): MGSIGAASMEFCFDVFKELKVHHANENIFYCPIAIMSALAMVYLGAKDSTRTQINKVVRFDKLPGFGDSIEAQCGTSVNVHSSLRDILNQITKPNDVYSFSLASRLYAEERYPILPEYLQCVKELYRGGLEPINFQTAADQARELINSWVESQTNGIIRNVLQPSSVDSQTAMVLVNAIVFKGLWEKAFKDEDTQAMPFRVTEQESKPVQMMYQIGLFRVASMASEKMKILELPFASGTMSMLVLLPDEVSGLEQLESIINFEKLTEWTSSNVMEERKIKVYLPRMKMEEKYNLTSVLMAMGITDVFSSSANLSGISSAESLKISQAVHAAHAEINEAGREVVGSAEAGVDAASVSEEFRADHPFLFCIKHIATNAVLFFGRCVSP

[7] = target: T6, Pig albumin (Sus scrofa, UniProt P08835); assay: Fluorescence anisotropy, panel of mammalian albumins: Pig; format: binding
T6 construct: All other mammalian albumins were purchased as Fraction V purified material from Sigma Chemical Company; purchased Sigma Chemical Company
Description: as §1, §2

[8] = target: T7, Rabbit albumin (Oryctolagus cuniculus, UniProt P49065); assay: Fluorescence anisotropy, panel of mammalian albumins: Rabbit; format: binding
T7 construct: All other mammalian albumins were purchased as Fraction V purified material from Sigma Chemical Company; purchased Sigma Chemical Company
Description: as §1, §2

[9] = read-out: KD for Truncated Peptides of DX-236, buffer not stated in Table 2
[10] = pH 6.2, NaCl ([…]) +, caprylate (0.1%) −
[11] = pH 7.4, NaCl ([…]) +, caprylate (0.1%) −

Ac-AEGTGDPWFCDRIAWYPQHLCEFLGGGK—NH2 [SEQ ID NO: 41]
Kd [1, 9]: 9.9 µM

Ac-AEGTGSVAWCTIFLCLDVAPEGGGK—NH2 [DX-232]
Dissociation Constants of HSA Binding Peptides [1, 10]: 0.5 µM | Kd ([1]; read-out: Dissociation Constants of HSA Binding Peptides, pH 7.4, NaCl ([…]) +, caprylate (0.1%) +): < 10 µM

Ac-AEGTGDFWFCDRIAWYPQHLCEFLDPEGGGK—NH2 [DX-236]
Kd ([2]; PBS, pH 7.4, […] NaCl): 25 µM | Kd ([2]; phosphate, pH 6.2, 0 M NaCl): 1.6 µM | Kd ([3]; PBS, pH 7.4, […] NaCl): 23 µM | Kd ([3]; phosphate, pH 6.2, 0 M NaCl): 1.1 µM | KD PBS ([1]; alanine mutants of DX-236, PBS): 35.0 µM | Dissociation Constants of HSA Binding Peptides [1, 11]: 11 µM | Kd ([1]; read-out: Dissociation Constants of HSA Binding Peptides, pH 6.2, NaCl ([…]) +, caprylate (0.1%) −): ~8.7 µM | Kd [1, 9]: 1.9 µM | Kd ([4]; PBS, pH 7.4, […] NaCl): 23 µM | Kd ([4]; phosphate, pH 6.2, 0 M NaCl): 1.6 µM | Kd ([5]; PBS, pH 7.4, […] NaCl): 13.3 µM | Kd ([5]; phosphate, pH 6.2, 0 M NaCl): 1.1 µM | Kd ([6]; PBS, pH 7.4, […] NaCl): > 200 µM | Kd ([6]; phosphate, pH 6.2, 0 M NaCl): > 200 µM | Kd ([7]; PBS, pH 7.4, […] NaCl): 12 µM | Kd ([7]; phosphate, pH 6.2, 0 M NaCl): 0.5 µM | Kd ([8]; PBS, pH 7.4, […] NaCl): 18 µM | Kd ([8]; phosphate, pH 6.2, 0 M NaCl): 0.5 µM

Ac-AEGTGAFWFCDRIAWYPQHLCEFLDPEGGGK-NH2 [SEQ ID NO: 129]
KD pH 6.2 ([1]; alanine mutants of DX-236, 3 mM phosphate buffer, pH 6.2, no salt): 5.1 μM

Ac-AEGTGDDWQCVKDWANRRRGCMA-DDPE-X-K—NH2 [DX-319]
Dissociation Constants of HSA Binding Peptides [1, 10]: >200 µM | Dissociation Constants of HSA Binding Peptides [1, 11]: >200 µM

Ac-AEGTGSWKVCDHFFCLSPAPE-X-K—NH2 [DX-297]
Dissociation Constants of HSA Binding Peptides ([1]; pH 6.2, NaCl ([…]) −, caprylate (0.1%) −): 18 µM | Dissociation Constants of HSA Binding Peptides ([1]; pH 7.4, NaCl ([…]) +, caprylate (0.1%) +): >200 µM

Ac-CDRIAWYPQHLCGGGK—NH2 [SEQ ID NO: 43]
Kd [1, 9]: 16 µM
